For experiment [1], the target named is FKBP51FK1 (Homo sapiens, UniProt Q13451).
For experiment [2], the target named is FKBP12 (Homo sapiens, UniProt P62942). Kind of experiment: competitive fluorescence polarization assay, binding to FKBP12. Conditions: read-out: Ki [nM] FKBP12; Table 1, competitive Fluorescence Polarization Assay. A general note: Fluorescence polarisation rises when a labelled molecule tumbles more slowly, as on binding a larger partner.
In experiment [3] the target is FKBP12.6 (Homo sapiens, UniProt P68106). Briefly: competitive fluorescence polarization assay, binding to FKBP12.6. Conditions: read-out: Ki [nM] FKBP12.6; Table 1, competitive Fluorescence Polarization Assay.

Sequences of proteins named here, by UniProt entry; tags and fusion partners are left off. Residues count along the entry.
UniProt Q13451, 42-130 limits assumed: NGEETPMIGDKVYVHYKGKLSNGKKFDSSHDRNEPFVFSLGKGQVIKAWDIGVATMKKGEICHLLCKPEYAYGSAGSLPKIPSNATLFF
UniProt P62942, whole entry: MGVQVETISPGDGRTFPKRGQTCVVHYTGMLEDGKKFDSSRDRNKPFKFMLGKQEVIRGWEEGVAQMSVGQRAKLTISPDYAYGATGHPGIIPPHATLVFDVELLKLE
UniProt P68106, whole entry: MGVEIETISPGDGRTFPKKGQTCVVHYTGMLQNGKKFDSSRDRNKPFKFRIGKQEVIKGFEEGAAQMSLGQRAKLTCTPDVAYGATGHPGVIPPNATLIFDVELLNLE

Molecules are shown by their SMILES.

For four compounds, Ki results are on record in patent US11834463B2, “High affinity macrocyclic FKB51-inhibitors for treatment of psychiatric disorders” (priority 2020, dated 2023).

As usually defined, the Ki is the dissociation constant of the complex between target and ligand, obtained from inhibition or displacement.

With `COc1ccc(CC[C@H]2OC(=O)[C@@H]3CCCCN3C(=O)[C@@H](C3CCCCC3)c3cc(OC)c(OC)c(c3)OCCC(=O)COc3cccc2c3)cc1OC`, the inhibition constant Ki came to 10 nM in experiment [1], 54 nM in experiment [2] and 28 nM in experiment [3].

Consider `COc1ccc(CC[C@H]2OC(=O)[C@@H]3CCCCN3C(=O)[C@@H](C3CCCCC3)c3cc(OC)c(c(OC)c3)OCCCOC/C=C/COc3cccc2c3)cc1OC`, for which the Ki came out at 94 nM in experiment [1], 430 nM in experiment [2] and 315 nM in experiment [3].

As to `COc1ccc(CC[C@H]2OC(=O)[C@@H]3CCCCN3C(=O)[C@@H](C3CCCCC3)c3cc(OC)c(c(OC)c3)OCCC(=O)COc3cccc2c3)cc1OC`, the inhibition constant (Ki) came to 8 nM in experiment [1], 53 nM in experiment [2] and 30 nM in experiment [3].

Turning to `COc1ccc(CC[C@H]2OC(=O)[C@@H]3CCCCN3C(=O)[C@@H](C3CCCCC3)c3cc(OC)c(c(OC)c3)OCCCOCCCCOc3cccc2c3)cc1OC`, the inhibitory constant (Ki) was 70 nM in experiment [1], 350 nM in experiment [2] and 187 nM in experiment [3].
